Values quoted from earlier work, collected in patent US7645795B2, “Method for treating amyotrophic lateral sclerosis” (BodyBio, Inc, priority 2004, dated 2010).

Test system: ALS patients

Nc1nc2ccc(OC(F)(F)F)cc2s1 [riluzole]
Tolerability: poorly tolerated by a majority of patients
